HCMV NEC inh – disrupts HCMV UL50-UL53 complex binding; AID 1918969; HTRF UL50-UL53 interaction, normalized percent inhibition; 0.15% of 190,000 active; inhibition, % (test concentration not listed); in the data active means inhibition above about 27%, passing the limit was not always enough
GIV-Gai inh – inhibitors of GIV GBA-motif binding to rat Galpha-i3; P08753; Galpha-i3/FITC-GIV peptide fluorescence polarization, 90 min; active compounds read low; scaled: aluminum fluoride 0%, vehicle 100%; percent of control (FP), % (concentration not given with the values); 210,000 compounds, 0.42% hits; AID 1224905;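 active means replicate mean at 85% of control or lower, very high polarization wells dropped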;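 further: wells of about 15 µL received 100 nL stock; the first replicate is given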
GIV Gai FP conf – GIV-Galpha-i3 inhibition, FP confirmation | 38% of 580 active | fluorescence polarization, mP at 100 µM | FITC-GIV peptide binding to Galphai3, fluorescence polarization; stronger effect = lower value | AID 1259350 | shares compounds with GIV-Gai inh;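 active means inhibition score of 15 or more, meaning 100 minus mean polarization as percent of control over three replicates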
GIV-Gai AS conf – confirmation of inhibitors of GIV binding to human Galpha-i3 | AlphaScreen Galphai3-GIV binding, purified proteins, 90 min; stronger effect = lower value | 39% of 580 active | AID 1259351 | AlphaScreen counts at 100 µM | shares compounds with GIV-Gai inh;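 active means inhibition score at or above a set limit, where the score is 100 minus the three-replicate mean percent of control signal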
* marks the source's active call; other numbers are inactive results. Compounds with a hit are over-represented: about 0.43% of the library has one in this group of screens.

What do the screens show for `CN1C(=O)c2ccccc2N(C)C1c1ccc(F)cc1` (stereo not drawn)?
HCMV NEC inh: 0; GIV-Gai inh: 101

How did CN(N)c1cc(=O)n(C)c(=O)[nH]1 do in these assays?
HCMV NEC inh: -49; GIV-Gai inh: 64*; GIV Gai FP conf: 49*; GIV-Gai AS conf: 32708

What do the screens show for `Cn1c(=O)cc(N2CCCCC2)[nH]c1=O`?
HCMV NEC inh: -16; GIV-Gai inh: 107

Results for Cc1cc(C)cc(NC(=S)N(CCCN2CCOCC2)C(C)c2cc3ccccc3o2)c1 (stereo not drawn) ?
GIV-Gai inh: 101

What do the screens show for `CCCNC(=O)c1c(C)c(C(=O)OCC)n(CC)c1C`?
HCMV NEC inh: -12; GIV-Gai inh: 100

What do the screens show for `CCOC(=O)c1c(-c2ccccc2)c[nH]c1N`?
HCMV NEC inh: -10; GIV-Gai inh: 60*; GIV Gai FP conf: 39*; GIV-Gai AS conf: 19838*

What do the screens show for `CCOC(=O)c1c(-c2ccccc2)cn2ccccc12`?
HCMV NEC inh: -18; GIV-Gai inh: 102

Results for O=C(O)C1Nc2c(I)cccc2C2C=CCC12 (stereo not drawn) ?
HCMV NEC inh: 14; GIV-Gai inh: 43*; GIV Gai FP conf: 36*; GIV-Gai AS conf: 1672*

Results for CC(=O)Nc1ccc2c(c1)C1C=CCC1C(C(=O)O)N2 (stereo not drawn) ?
HCMV NEC inh: -58; GIV-Gai inh: 188

What do the screens show for `CNC(=O)Cc1ccc(-n2c(=O)c3ccccc3n(CC(=O)Nc3cccc(Cl)c3)c2=O)cc1`?
HCMV NEC inh: -21; GIV-Gai inh: 101

What do the screens show for `Oc1ccccc1C(Nc1ccccn1)c1ccc2cccnc2c1O` (stereo not drawn)?
HCMV NEC inh: -62

Results for Oc1ccc2ncccc2c1C(Nc1ccccn1)c1ccco1 (stereo not drawn) ?
HCMV NEC inh: -4; GIV-Gai inh: 79*; GIV Gai FP conf: 69; GIV-Gai AS conf: 5282*

Overlap with the part before: three entries, followed by the next part.
What do the screens show for `CNC(=O)Cc1ccc(-n2c(=O)c3ccccc3n(CC(=O)Nc3cccc(Cl)c3)c2=O)cc1`?
HCMV NEC inh: -21; GIV-Gai inh: 101

What do the screens show for `Oc1ccccc1C(Nc1ccccn1)c1ccc2cccnc2c1O` (stereo not drawn)?
HCMV NEC inh: -62

Results for Oc1ccc2ncccc2c1C(Nc1ccccn1)c1ccco1 (stereo not drawn) ?
HCMV NEC inh: -4; GIV-Gai inh: 79*; GIV Gai FP conf: 69; GIV-Gai AS conf: 5282*

How did O=C(/C=C/c1ccccc1)/C=C/c1ccccc1 do in these assays?
GIV-Gai inh: 80*; GIV Gai FP conf: 47*; GIV-Gai AS conf: 17701*

What do the screens show for `O=C(O)/C=C/c1ccc(/C=C/C(=O)O)cc1`?
HCMV NEC inh: -33; GIV-Gai inh: 108

Results for O=C1NC2(O)C(=O)c3ccccc3C2(O)N1 (stereo not drawn) ?
GIV-Gai inh: 113

Results for NC1=NC2(O)c3ccccc3C(=O)C2(O)NN1 (stereo not drawn) ?
GIV-Gai inh: 76*; GIV Gai FP conf: 54*; GIV-Gai AS conf: 44135

What do the screens show for `COc1ccc(/C=C2\C=C(c3ccccc3)N(c3ccc(Cl)c(Cl)c3)C2=O)cc1Br`?
GIV-Gai inh: 119

Results for COc1ccc(/C=C2\C=C(c3ccccc3)N(c3cccc(C(C)=O)c3)C2=O)cc1Br ?
GIV-Gai inh: 78*; GIV Gai FP conf: 73; GIV-Gai AS conf: 38656

What do the screens show for `COc1ccc(/C=C2\C=C(c3ccccc3)N(c3cccnc3)C2=O)cc1Br`?
GIV-Gai inh: 44*; GIV Gai FP conf: 66; GIV-Gai AS conf: 45797

How did COc1ccc(/C=C2\C=C(c3ccccc3)N(c3ccc(Br)cc3)C2=O)cc1Br do in these assays?
GIV-Gai inh: 110

What do the screens show for `COc1ccc(/C=C2\C=C(c3ccccc3)N(c3ccc(Br)cc3)C2=O)cc1`?
GIV-Gai inh: 102

Results for COC(=O)c1cc(N2C(=O)/C(=C/c3ccc(OC)c(Br)c3)C=C2c2ccccc2)ccc1Cl ?
GIV-Gai inh: 7.0*; GIV Gai FP conf: 62; GIV-Gai AS conf: 49090

Results for COc1ccc(N2C(=O)/C(=C/c3ccc(Cl)cc3)C=C2c2ccccc2)cc1 ?
GIV-Gai inh: 82*; GIV Gai FP conf: 77; GIV-Gai AS conf: 32406

What do the screens show for `COc1ccc(/C=C2\C=C(c3ccccc3)N(c3ccc(O)cc3)C2=O)cc1Br`?
GIV-Gai inh: 111

What do the screens show for `c1ccc(-c2nc3cnc(N4CCN(c5ccccc5)CC4)nc3o2)cc1`?
HCMV NEC inh: -11; GIV-Gai inh: 101

What do the screens show for `CCC(CC)C(=O)Nc1cccc(NC(C)=O)c1`?
HCMV NEC inh: -12; GIV-Gai inh: 106

What do the screens show for `COc1cccc(C(=O)Nc2nncs2)c1`?
GIV-Gai inh: 101

What do the screens show for `CC(C)Cn1c(=O)c(=O)[nH]c2cc(-c3noc(-c4ccnn4C)n3)ccc21`?
HCMV NEC inh: -41; GIV-Gai inh: 102

How did CNC(=O)N1CCCC(c2cccc(C(=O)NC(C)c3ccc(C)cc3C)c2)C1 (stereo not drawn) do in these assays?
HCMV NEC inh: -16; GIV-Gai inh: 105

Screening data: PubChem BioAssay, ICCB-Longwood Screening Facility, Harvard Medical School
